# According to ChEMBL document CHEMBL1129381, “Novel (R)-2-amino-5-fluorotetralins: dopaminergic antagonists and inverse agonists” (J Med Chem, 1996):
# Protein sequences, listed by entry. Tags and fused reporters are not part of them.
# UniProt P14416, whole entry: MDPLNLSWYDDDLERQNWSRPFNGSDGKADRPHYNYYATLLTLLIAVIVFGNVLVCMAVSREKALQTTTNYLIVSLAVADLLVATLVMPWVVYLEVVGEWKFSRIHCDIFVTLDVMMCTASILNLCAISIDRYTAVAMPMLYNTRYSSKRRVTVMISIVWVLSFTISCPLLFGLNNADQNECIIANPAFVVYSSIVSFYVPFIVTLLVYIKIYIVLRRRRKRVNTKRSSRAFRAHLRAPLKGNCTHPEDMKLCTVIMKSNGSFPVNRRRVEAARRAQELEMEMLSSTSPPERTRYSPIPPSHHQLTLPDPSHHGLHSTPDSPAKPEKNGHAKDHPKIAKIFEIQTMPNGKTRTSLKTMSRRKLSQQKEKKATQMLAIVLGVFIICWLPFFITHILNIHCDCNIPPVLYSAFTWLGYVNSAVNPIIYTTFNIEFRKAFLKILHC
# Biological target: D(2) dopamine receptor (Homo sapiens, UniProt P14416)
smiles,measurement,value
CC(C)N[C@@H]1CCc2c(F)cccc2C1,pKi,5.61

# pKi: −log10 of the molar value.
